How the values were obtained:
[1] = target: T1, hSTING^H232 (aa 140-379) (Homo sapiens, UniProt Q86WV6); experiment: ITC binding, hSTING^H232; details: Protein: 0.2 mM; Ligands: 1 mM; 30 mM HEPES, 100 mM NaCl, pH 7.5; 25° C.
T1 construct: His6-SUMO (N, cleaved yes); made in house; host or cells: E. coli BL21 (DE3) RIL

The chains behind the UniProt entries cited, without tags or fusion partners. Residues count along the entry.
UniProt Q86WV6, 140-379: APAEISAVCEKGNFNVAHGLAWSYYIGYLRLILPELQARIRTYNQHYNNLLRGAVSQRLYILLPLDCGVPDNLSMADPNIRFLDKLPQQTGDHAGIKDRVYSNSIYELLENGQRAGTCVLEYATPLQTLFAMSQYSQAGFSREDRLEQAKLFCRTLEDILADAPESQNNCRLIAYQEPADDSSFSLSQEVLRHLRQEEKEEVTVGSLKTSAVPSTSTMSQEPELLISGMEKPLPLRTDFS
UniProt Q86WV6, whole entry S162A: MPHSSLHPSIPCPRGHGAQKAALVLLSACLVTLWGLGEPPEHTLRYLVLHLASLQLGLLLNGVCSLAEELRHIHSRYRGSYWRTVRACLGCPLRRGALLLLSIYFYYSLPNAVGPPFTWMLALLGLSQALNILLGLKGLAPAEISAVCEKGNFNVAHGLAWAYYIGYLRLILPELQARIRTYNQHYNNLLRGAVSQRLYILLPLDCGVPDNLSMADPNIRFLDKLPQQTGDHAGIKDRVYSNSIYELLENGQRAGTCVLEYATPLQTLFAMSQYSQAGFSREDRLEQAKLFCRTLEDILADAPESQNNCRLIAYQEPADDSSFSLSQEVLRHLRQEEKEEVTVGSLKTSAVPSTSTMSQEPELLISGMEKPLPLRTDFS
UniProt Q86WV6, whole entry T263A: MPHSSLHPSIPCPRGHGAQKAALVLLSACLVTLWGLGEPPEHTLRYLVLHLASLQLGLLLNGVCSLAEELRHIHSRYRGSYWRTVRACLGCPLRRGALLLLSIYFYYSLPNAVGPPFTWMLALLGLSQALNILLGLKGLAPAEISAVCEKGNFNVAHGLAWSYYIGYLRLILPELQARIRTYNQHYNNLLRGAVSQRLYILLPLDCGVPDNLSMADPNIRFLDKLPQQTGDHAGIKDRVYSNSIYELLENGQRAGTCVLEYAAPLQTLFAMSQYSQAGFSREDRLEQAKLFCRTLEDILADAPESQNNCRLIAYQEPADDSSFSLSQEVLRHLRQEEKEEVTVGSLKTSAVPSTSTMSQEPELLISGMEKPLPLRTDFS
UniProt Q86WV6, whole entry T267A: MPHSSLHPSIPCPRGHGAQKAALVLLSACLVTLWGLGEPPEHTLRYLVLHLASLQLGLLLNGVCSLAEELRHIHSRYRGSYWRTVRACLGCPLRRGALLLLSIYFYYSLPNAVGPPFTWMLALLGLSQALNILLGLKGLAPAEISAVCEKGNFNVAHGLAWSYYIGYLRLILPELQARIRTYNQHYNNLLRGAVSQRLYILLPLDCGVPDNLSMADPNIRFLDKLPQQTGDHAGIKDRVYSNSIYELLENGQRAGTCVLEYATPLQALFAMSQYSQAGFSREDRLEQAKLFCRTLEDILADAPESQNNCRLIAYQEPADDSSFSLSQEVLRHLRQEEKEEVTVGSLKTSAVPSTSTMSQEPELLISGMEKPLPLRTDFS
UniProt Q86WV6, 140-379 H232R: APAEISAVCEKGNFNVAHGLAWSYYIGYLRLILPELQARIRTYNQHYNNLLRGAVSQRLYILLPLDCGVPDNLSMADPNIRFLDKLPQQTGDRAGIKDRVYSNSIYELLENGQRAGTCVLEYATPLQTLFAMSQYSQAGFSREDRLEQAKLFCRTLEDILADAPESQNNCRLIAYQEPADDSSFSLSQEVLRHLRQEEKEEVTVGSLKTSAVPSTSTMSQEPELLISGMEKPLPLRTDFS

[2] = target: T2, hSTING^H232 (Homo sapiens, UniProt Q86WV6); experiment: IFN-β luciferase reporter, HEK293T cells with hSTING^H232; assay type: cell-based; details: digitonin permeabilization (30 min), 12 h
T2 construct: Full-length hSTING (wt and substitutions) and mSTING (wt) constructs were used for this cellular assay; expressed in transfected cells; host or cells: HEK293T

[3] = target: T3, hSTING S162A (hSTING^H232 and hSTING^R232 background) (Homo sapiens, UniProt Q86WV6, S162A); assay type: cell-based; details: digitonin permeabilization
T3 construct: Full-length hSTING (wt and substitutions) and mSTING (wt) constructs were used for this cellular assay; expressed in transfected cells; host or cells: HEK293T

[4] = target: hSTING^H232/T263A (Homo sapiens, UniProt Q86WV6, T263A); details: digitonin permeabilization
[5] = target: hSTING^H232 T267A (Homo sapiens, UniProt Q86WV6, T267A); details: digitonin permeabilization
[6] = target: hSTING^R232 (aa 140-379) (Homo sapiens, UniProt Q86WV6, H232R); experiment: ITC binding, hSTING^R232 (wt hSTING)
[7] = Protein: 0.2 mM, Ligands: 0.9 mM, pH 7.5, 25° C.

With Nc1nc2c(ncn2[C@@H]2O[C@@H]3COP(=O)(O)O[C@H]4[C@@H](O)[C@H](n5cnc6c(N)ncnc65)O[C@@H]4COP(=O)(O)O[C@H]3[C@H]2O)c(=O)[nH]1 as the compound, how does the TΔS [1] read?
Its TΔS is -3.61 kcal/mol.

And the ΔG [1]?
Its ΔG is -7.01 kcal/mol.

And the ΔH [1]?
The ΔH was -10.62 kcal/mol.

And the “IFN luciferase reporter dose-response to cGAMP isomers” value [2]?
Its value is “lesser response”.

What about the “IFN luciferase reporter response to cGAMP isomers” value [3] of the same compound?
Its value is “weaker response”.

And the “IFN luciferase reporter response compared to 2′,5′ linkage isomers” value [4]?
The value was “gain in sensitivity”.

What about the “IFN luciferase reporter response to cGAMP isomers” value [5] of the same compound?
Its value is “weaker response”.

What about the “binding affinity increase for STING variants with R232 compared to H232” value ([6]; ITC) of the same compound?
The value was “about 4 fold”.

What about the TΔS [6, 7] of the same compound?
The TΔS was “+6.86 Kcal/mol”.

What about the ΔG [6, 7] of the same compound?
The ΔG was -7.99 kcal/mol.

What about the ΔH [6, 7] of the same compound?
Its ΔH is -1.13 kcal/mol.

Source: patent US10176292B2, “STING crystals and modulators” (MEMORIAL SLOAN-KETTERING CANCER CENTER, priority 2013, dated 2019)
